The target in this experiment is Protein farnesyltransferase (Rattus norvegicus, UniProt Q04631+Q02293). The experiment can be described thus: In vitro inhibition of Farnesyltransferase (FT) by using FT [3H]-SPA kit. The class given is protein-complex assay.

Sequences of proteins named here, by UniProt entry; tags and fusion partners are left off.
UniProt Q02293, whole entry, looked up: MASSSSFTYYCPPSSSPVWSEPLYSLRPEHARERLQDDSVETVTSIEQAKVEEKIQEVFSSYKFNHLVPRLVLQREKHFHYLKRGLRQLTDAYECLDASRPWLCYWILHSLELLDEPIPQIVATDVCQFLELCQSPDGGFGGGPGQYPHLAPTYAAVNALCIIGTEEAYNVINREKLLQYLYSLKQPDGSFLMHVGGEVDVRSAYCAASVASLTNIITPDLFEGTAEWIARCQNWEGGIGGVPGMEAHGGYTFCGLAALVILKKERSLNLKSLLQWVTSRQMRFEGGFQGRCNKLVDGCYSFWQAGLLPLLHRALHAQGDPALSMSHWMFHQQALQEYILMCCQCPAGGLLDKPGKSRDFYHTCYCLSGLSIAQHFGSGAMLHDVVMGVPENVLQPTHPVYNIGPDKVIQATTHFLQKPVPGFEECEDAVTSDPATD

This note sets out measurements from ChEMBL document CHEMBL1133580, “Successful virtual screening of a chemical database for farnesyltransferase inhibitor leads” (J Med Chem, 2000).

For `NC(=O)c1cc([N+](=O)[O-])cc2c1-c1c(cc([N+](=O)[O-])cc1[N+](=O)[O-])C2=O`, the 50% inhibitory concentration (IC50) was found to be 80 µM. This counts as double-digit micromolar.

As to `O=[N+]([O-])c1ccc(O)c(C=C2c3cc([N+](=O)[O-])cc([N+](=O)[O-])c3-c3c2cc([N+](=O)[O-])cc3[N+](=O)[O-])c1`, the IC50 amounted to 100 µM.

For orientation: IC50 means the concentration that inhibits the measured activity by half.
